Counter-ions that a name gives are not always drawn.

Chains of the proteins cited; added tags and fusions are not shown. Lines headed by an entry give the natural chain unless they say otherwise; changes in a name come on top.
UniProt P35372, whole entry: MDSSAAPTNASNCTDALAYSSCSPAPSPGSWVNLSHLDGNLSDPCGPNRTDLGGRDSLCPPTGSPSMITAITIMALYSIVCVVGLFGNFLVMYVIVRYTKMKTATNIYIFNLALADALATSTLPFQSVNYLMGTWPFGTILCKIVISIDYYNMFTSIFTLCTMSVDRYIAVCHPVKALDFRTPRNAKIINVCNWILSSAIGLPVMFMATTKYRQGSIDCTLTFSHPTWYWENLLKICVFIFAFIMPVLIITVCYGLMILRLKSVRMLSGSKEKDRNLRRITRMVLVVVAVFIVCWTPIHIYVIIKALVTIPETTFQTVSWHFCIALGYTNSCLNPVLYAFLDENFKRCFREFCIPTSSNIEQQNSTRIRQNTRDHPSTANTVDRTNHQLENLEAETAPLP
UniProt P33535, whole entry: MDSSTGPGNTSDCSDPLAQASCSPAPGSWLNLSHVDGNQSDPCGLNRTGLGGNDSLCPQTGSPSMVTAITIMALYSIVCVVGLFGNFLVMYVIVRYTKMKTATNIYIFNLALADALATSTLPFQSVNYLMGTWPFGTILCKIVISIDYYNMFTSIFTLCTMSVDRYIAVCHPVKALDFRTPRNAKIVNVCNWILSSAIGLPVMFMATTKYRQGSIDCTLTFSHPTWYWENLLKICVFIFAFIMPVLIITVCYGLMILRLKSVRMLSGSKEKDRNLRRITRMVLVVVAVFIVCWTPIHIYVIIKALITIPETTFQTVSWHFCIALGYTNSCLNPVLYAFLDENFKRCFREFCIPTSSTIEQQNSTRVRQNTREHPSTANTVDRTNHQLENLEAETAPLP
UniProt P41144: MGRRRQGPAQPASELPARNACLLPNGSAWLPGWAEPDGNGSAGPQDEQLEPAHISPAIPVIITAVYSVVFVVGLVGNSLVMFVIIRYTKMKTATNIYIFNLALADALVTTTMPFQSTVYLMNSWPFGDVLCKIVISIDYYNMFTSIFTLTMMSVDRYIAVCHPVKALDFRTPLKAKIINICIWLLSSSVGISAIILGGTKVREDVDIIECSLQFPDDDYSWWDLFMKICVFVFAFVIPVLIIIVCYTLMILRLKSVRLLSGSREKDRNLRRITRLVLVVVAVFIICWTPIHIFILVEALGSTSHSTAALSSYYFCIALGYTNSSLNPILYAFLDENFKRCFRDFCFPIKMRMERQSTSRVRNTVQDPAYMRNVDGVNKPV

For experiment [1], the target named is T1, MOR (Homo sapiens, UniProt P35372).
T1 construct: host or cells: CHO (CHO-hMOR)
The experiment can be described thus: [35S]GTPγS binding assay, CHO-hMOR membranes. It is filed as biochemical. On the procedure: Efficacies are presented as percentage stimulation relative to the standard full agonists, [D-Ala^2,N-Me-Phe4,Gly-ol^5]enkephalin (DAMGO for MOR),[53] [D-Pen^2,D-Pen^5]enkephalin (DPDPE for DOR)[54] and N-methyl-2-phenyl-N-[(5R,7S,8S)-7-(pyrrolidin-1-yl)-1-oxaspiro[4.5]dec-8-yl]acetamide (U69,593 for KOR).[55]
Membranes from CHO cells expressing human opioid receptors were prepared in 50 mM Tris-HCl buffer (pH 7.7) according to a previously described procedure.[64] Cells expressing human opioid receptors grown at confluence were removed from the culture plates by scraping, homogenized in 50 mM Tris buffer (pH 7.7), using a Polytron homogenizer, then centrifuged once and washed by an additional centrifugation at 27 000g for 15 min, at 4 °C. The final pellet was resuspended in Tris buffer and stored at −80 °C until use. Protein content of brain and cell membrane preparation homogenates was determined by the method of Bradford using bovine serum albumin as the standard.[65]
Binding of [^35S]GTPγS to membranes from CHO cells stably expressing the human opioid receptors was conducted according to the published procedures.[49],[64] Cell membranes (5–10 μg) in 20 mM HEPES, 10 mM MgCl2, and 100 mM NaCl (pH 7.4) were incubated with 0.05 nM [^35S]GTPγS, 10 μM GDP, and various concentrations of test compound in a final volume of 1 mL, for 60 min at 25 °C. Nonspecific binding was determined using 10 μM GTPγS, and the basal binding was determined in the absence of test ligand. Samples are filtered over glass Whatman glass GF/B fiber filters and counted as described for binding assays. All experiments were performed in duplicate and repeated at least three times.
Data were analyzed and graphically processed using the GraphPad Prism 5.0 Software (GraphPad Prism Software Inc., San Diego, CA). For in vitro assays, inhibition constant (Ki in nM), potency (EC50 in nM), and efficacy (% stimulation) values were determined from concentration–response curves by nonlinear regression analysis. The Ki values were determined by the method of Cheng and Prusoff.[66] In the [^35S]GTPγS binding assays, efficacy was determined relative to the reference full opioid agonists, DAMGO (MOR), DPDPE (DOR), and U69,593 (KOR). In vitro data are presented as mean ± SEM of three to four independent experiments each performed in duplicate. […] Each experimental group included six to seven mice. Data were statistically evaluated using one-way ANOVA with Tukey’s post hoc test for multiple comparisons with significance set at P < 0.05.

Experiment [2] addresses T1, MOR. Description: competition radioligand binding, CHO cell membranes expressing human MOR, [3H]DAMGO.
The target of experiment [3] is T2, MOR (Rattus norvegicus, UniProt P33535).
T2 construct: Membranes were prepared from Sprague-Dawley rat brains or guinea-pig brains according to the described procedures; tissue Labortierkunde und Laborgenetik, Medizinische Universität Wien; host or cells: Sprague-Dawley rat brain without cerebella
Description: competition radioligand binding, rat brain membranes, [3H]DAMGO. The following applies: for Ki: rat brain membranes, read-out: opioid receptor binding Ki MOR.

The target of another experiment is T3, KOR (Cavia porcellus, UniProt P41144).
T3 construct: Membranes were prepared from Sprague-Dawley rat brains or guinea-pig brains according to the described procedures; tissue Labortierkunde und Laborgenetik, Medizinische Universität Wien; host or cells: guinea-pig brain without cerebella
The following applies: guinea-pig brain membranes; read-out: opioid receptor binding Ki KOR; cited from earlier work.

`CO[C@@]12CC[C@@H](N[C@@H](C)C(=O)O)[C@@H]3Oc4c(O)ccc5c4[C@@]31CCN(C)[C@@H]2C5` [Compound 3b] came in with a 50% effective concentration (EC50) at MOR [1] of 6.24 ± 0.79 nM. In addition, the affinity at MOR [2], expressed as Ki, was 2.01 ± 0.41 nM.
For the compound `CO[C@@]12CC[C@H](N[C@@H](C)C(=O)O)[C@@H]3Oc4c(O)ccc5c4[C@@]31CCN(C)[C@@H]2C5` [Compound 3a], the “Ki ratio MOR/DOR/KOR” value on MOR [3] (from Ki data of ref 44) is 1/35/184. Besides, the EC50 on MOR [1] was 1.34 ± 0.17 nM. The Ki at MOR [2] was determined as 0.85 ± 0.06 nM.
Regarding `CO[C@@]12CC[C@@H](NCC(=O)O)[C@@H]3Oc4c(O)ccc5c4[C@@]31CCN(C)[C@@H]2C5` [Compound 2b, 2-[(4,5α-Epoxy-3-Hydroxy-14β-Methoxy-17-Methylmorphinan-6β-yl)Amino]Acetic Acid], at KOR, the inhibitory constant (Ki) was 44.8 ± 0.1 nM.
As for `CO[C@@]12CC[C@H](NCC(=O)O)[C@@H]3Oc4c(O)ccc5c4[C@@]31CCN(C)[C@@H]2C5` [Compound 2a], the Ki at KOR was 43.2 ± 7 nM.
With `CO[C@@]12CC[C@H](NC(C)C(=O)O)[C@@H]3Oc4c(O)ccc5c4[C@@]31CCN(C)[C@@H]2C5` (stereo in doubt) [Compound 15a, (2S)-2-[(4,5α-Epoxy-3-hydroxy-14β-methoxy-17-methylmorphinan-6α-yl)amino]propanoic Acid Dihydrochloride], at MOR [3] (from Ki in rat (MOR, DOR) and guinea-pig (KOR) brain membranes), the “Ki ratio MOR/DOR/KOR” value is recorded as 1/15/104. Also, the inhibition constant (Ki) at MOR [3] came to 0.69 ± 0.11 nM; on MOR [2], 0.68 ± 0.08 nM. For the same compound, the concentration giving a half-maximal response (EC50) on MOR [1] was determined as 1.44 ± 0.49 nM.
As to `CO[C@@]12CC[C@@H](NC(C)C(=O)O)[C@@H]3Oc4c(O)ccc5c4[C@@]31CCN(C)[C@@H]2C5` (stereo in doubt) [Compound 15b, (2S)-2-[(4,5α-Epoxy-3-hydroxy-14β-methoxy-17-methylmorphinan-6β-yl)amino]propanoic Acid Dihydrochloride], the results for the Ki at MOR [3] and at MOR [2] were 1.48 ± 0.08 nM and 1.61 ± 0.04 nM, respectively. The response on MOR [1] was half-maximal at 15.4 ± 8.4 nM (EC50).
